Yeast mating assay 2: variants of the scFv Ab-95

All variants were tested on one target, the spike HR2 peptide PDVDLGDISGINAS (SARS-CoV-2).

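Phage display of a naive human antibody library on the peptide gave the parent. AAYL52 was designed without a model: most single CDR substitutions and a random sample of double and triple ones. The scFvs were displayed on barcoded MATa yeast, the peptide on MATalpha yeast. Pairs that bind mate more often; barcode pairs of the diploids are counted by sequencing. A regression on co-assayed BCL2-family reference pairs converts the normalised counts of each replicate to an apparent Kd. Each pool was mated in three replicate cultures.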

The variants keep the heavy chain, the linker and the frameworks of Ab-95 (scFv order VH, the linker GGGGSGGGGSGGGGS, VL).
VH: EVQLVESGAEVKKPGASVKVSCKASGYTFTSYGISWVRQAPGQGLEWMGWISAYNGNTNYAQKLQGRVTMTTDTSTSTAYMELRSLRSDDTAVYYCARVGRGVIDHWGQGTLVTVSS
VL: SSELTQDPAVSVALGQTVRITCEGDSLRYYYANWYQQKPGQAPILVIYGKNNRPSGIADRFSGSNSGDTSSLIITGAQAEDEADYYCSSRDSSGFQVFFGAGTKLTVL

Substitutions are numbered in sequence along the VL above, starting at 1 (not Kabat). All variants listed here change A32 of the VL, counted from its first residue. Each Kd is an estimate from the mating assay, the geometric mean of the replicates in which the pair was seen; lower is stronger. An entry "nd" has no value in the source: the pair was not observed among the diploids in any replicate. This suggests poor binding but is not conclusive. Background: pairings of library AAYL52 with three empty control strains gave a value in 28% of cases (median 8.2 µM, 5th percentile 800 nM). Values in that range, when seen in few replicates, are hard to tell from nonspecific mating. For each scFv, signals with the empty controls are counted beside the result.

With S26Y+A32H+S89G the result was 340 nM (3 of 3 replicates; controls 0 of 9). With S26T+A32I+Q96G the result was nd (0 of 3 replicates; controls 3 of 9). For A32F+N33I+N52K, the assay gave 1.6 µM (1 of 3 replicates; controls 2 of 9). Variant A32C+F95M gave 3.6 µM (3 of 3 replicates; controls 0 of 9). Variant A32T+P54L+Q96M gave 5.1 µM (1 of 3 replicates; controls 3 of 9). With R28H+A32M+G94R the result was 10 µM (2 of 3 replicates; controls 6 of 9). Variant A32K+G49S+S92D gave 8.2 µM (1 of 3 replicates; controls 2 of 9). Variant G24R+A32V+N33S showed 6.3 µM (1 of 3 replicates; controls 3 of 9).

With D25Q+A32E+R53E the result was 2.5 µM (3 of 3 replicates; controls 2 of 9). Variant Y30W+A32N+K50G showed 74 nM (3 of 3 replicates; controls 2 of 9). With A32V+S55F+S88C the result was 250 nM (3 of 3 replicates; controls 1 of 9). For A32T+Q96F+F98T, the assay gave 810 nM (3 of 3 replicates; controls 2 of 9). Variant A32S+N33G+N51Y gave 6.5 µM (3 of 3 replicates; controls 3 of 9). With Y31T+A32I the result was 4.7 µM (2 of 3 replicates; controls 3 of 9). Variant A32I+S88K+G94L gave 130 nM (3 of 3 replicates; controls 1 of 9). Variant G24I+A32R+S88N showed nd (0 of 3 replicates; controls 0 of 9).

With A32F+Q96R+F98N the result was 4.0 µM (1 of 3 replicates; controls 5 of 9). Variant A32S+N52L+S89V showed 190 nM (3 of 3 replicates; controls 3 of 9). Variant R28W+A32H showed nd (0 of 3 replicates; controls 1 of 9). With Y31A+A32M+N33Y the result was 2.2 µM (2 of 3 replicates; controls 1 of 9). With E23F+A32G+S92M the result was 680 nM (2 of 3 replicates; controls 3 of 9). Variant A32R+N51S+F95E showed 7.3 µM (3 of 3 replicates; controls 4 of 9). For A32Q+N51I+S88L, the assay gave 2.8 µM (1 of 3 replicates; controls 2 of 9). For A32W+N33H+P54I, the assay gave 10 µM (2 of 3 replicates; controls 6 of 9).

For L27N+A32H+G94A, the assay gave 1.5 µM (3 of 3 replicates; controls 3 of 9). For A32G+D91W+S92M, the assay gave nd (0 of 3 replicates; controls 0 of 9). For A32D+S55C+D91Y, the assay gave 13 µM (2 of 3 replicates; controls 1 of 9). With A32E+S55G+S92L the result was nd (0 of 3 replicates; controls 2 of 9). For D25F+A32E+R90M, the assay gave nd (0 of 3 replicates; controls 0 of 9). For A32P+P54N+D91F, the assay gave 1.4 µM (3 of 3 replicates; controls 3 of 9). With D25T+Y31V+A32P the result was 300 nM (3 of 3 replicates; controls 4 of 9). For A32L+K50D+V97Q, the assay gave 9.5 µM (3 of 3 replicates; controls 3 of 9).

For A32W+R53N+Q96L, the assay gave 14 µM (3 of 3 replicates; controls 1 of 9).

The first 2 variants above that were never detected:

With S26T+A32I+Q96G the result was nd (0 of 3 replicates; controls 3 of 9).
With G24I+A32R+S88N the result was nd (0 of 3 replicates; controls 0 of 9).

Values reported by Engelhart et al. 2022, doi:10.1038/s41597-022-01779-4 (FLAb copy).